Experimental data as given in US20230218577A1, “USE OF HEAT SHOCK PROTEIN INHIBITORS FOR THE TREATMENT OF NEURODEVELOPMENTAL DISORDERS” (The Children's Medical Center Corporation, priority 2020, published 2023).
Read-outs that look alike come from different tables or passages of the source. Peptide text beside a SMILES is read from it. * marks the point of attachment. Cbz = O=C(OCc1ccccc1)*; CH2Cl = ClC*; CH2F = FC*

Test system: mTORC1 activity (pS6) in Tsc2-sh hippocampal neurons
Assay: mTORC1 high-content screen (mTORC1^HCA) with the Biomol collection library
[1] = Z-score of percent GFP+pS6+ neurons in compound-treated Tsc2-knockdown wells, DIV20, Biomol library screen, replica 1
[2] = Z-score of percent GFP+pS6+ neurons in compound-treated Tsc2-knockdown wells, DIV20, Biomol library screen, replica 2
[3] = Z-score of percent GFP+pS6+ neurons in compound-treated Tsc2-knockdown wells, DIV20, Biomol library, replica 1
[4] = Z-score of percent GFP+pS6+ neurons in compound-treated Tsc2-knockdown wells, DIV20, Biomol library, replica 2

Molecule	T2 Zscore (Replica 1)	T2 Zscore (Replica 2)	other results
COC(=O)C[C@H](NC(=O)[C@H](C)NC(=O)[C@@H](NC(=O)OCc1ccccc1)C(C)C)C(=O)CF [Z-VAD(OMe)-FMK] (Cbz-Val-Ala-Asp(OMe)-CH2F)	−0.5294	−0.03524	
CO/C1=C\C(C)=C\[C@@H](C)[C@@H](O)[C@@H](C)C/C(C)=C/C=C/[C@H](OC)[C@@H]([C@@H](C)[C@@H](O)[C@H](C)[C@@]2(O)C[C@@H](O)[C@H](C)[C@@H](C(C)C)O2)OC1=O [Bafilomycin A1]	0.3441	1.894	
CC1=C(CC/C(C)=C/CCC2=CC[C@H](C3=CC(=O)O[C@H]3O)O[C@H]2O)C(C)(C)CCC1 [Manoalide]	−0.2077	0.1854	
Cc1ccc(S(=O)(=O)N[C@@H](Cc2ccccc2)C(=O)CCl)cc1 [Tosyl-Phe-CMK (TPCK)]	0.8292	0.4999	
CN(C)C[C@H](O)Cn1c2ccc(Br)cc2c2cc(Br)ccc21 (racemic) [Wiskostatin]			T2 Zscore (Replica 1) [1]: −0.05566; T2 Zscore (Replica 2) [2]: 1.137
O=[N+]([O-])c1cccc2c(Br)[nH]nc12 [Bromo-7-nitroindazole]			T2 Zscore (Replica 1) [1]: 0.5425; T2 Zscore (Replica 2) [2]: 1.132
CC(C)n1cnc2c(NCc3ccccc3)nc(NCCO)nc21 [N9-Isopropylolomoucine]	−0.7594	−0.08061	
CC(C)[C@@H](O)CC[C@@H](C)[C@H]1CC[C@H]2[C@@H]3CC=C4C[C@@H](O)CC[C@]4(C)[C@H]3CC[C@]12C [24(S)-hydroxycholesterol]	−0.4822	−0.1125	
CC[N+](CC)(CC)CC(=O)Nc1c(C)cccc1C [QX-314]	1.301	−1.406	
CO[C@H](C/C=C\C=C\CC/C=C/C[C@H](C)/C=C/C(=C\C(=O)O)CC(=O)O)/C(C)=C\C=C(/C)C(=O)O [Bongkrekic acid]	−0.2324	1.063	
N#Cc1cc2c(OCC(O)CN3CCN(C(c4ccccc4)c4ccccc4)CC3)cccc2[nH]1 (centres unmarked) [SDZ-201106]	1.322	−0.7211	
Nc1ncnc2c1c(I)cn2[C@@H]1O[C@H](CO)[C@@H](O)[C@H]1O [5-Iodotubercidin]	−1.537	−1.555	
CCCCC(C)(O)C/C=C/[C@H]1[C@H](O)CC(=O)[C@@H]1CCCCCCC(=O)O (mixture of isomers) [Misoprostol, free acid]			T2 Zscore (Replica 1) [1]: 0.7325; T2 Zscore (Replica 2) [2]: 0.625
CN(C)c1ccc(/C=C2\C(=O)Nc3ccccc32)cc1 [SU-4312]	0.8944	0.4016	
CCCCC[C@H](O)/C=C/[C@@H]1[C@@H](CCCCCCC(=O)O)[C@@H](O)C[C@H]1O [Prostaglandin F1a]	−0.8799	−0.6804	
Cc1c(C(=O)NN2CCCCC2)nn(-c2ccc(Cl)cc2Cl)c1-c1ccc(I)cc1 [AM-251]	−0.31	0.1132	
Cc1ccc(NC(=O)c2cccc(N(C)C)c2)cc1NC(=O)c1ccc(O)cc1 [ZM336372]	0.6466	1.125	
NCCc1c[nH]cn1 [Histamine]			T2 Zscore (Replica 1) [3]: 1.285; T2 Zscore (Replica 2) [4]: 0.5348
CCCCCCCCCCCCCCCC(=O)N[C@@H](COP(=O)(O)O)C(=O)O [L-NASPA]	−0.2267	−0.3736	
CC(C)NCC(O)c1ccc(N)c(C#N)c1 (centres unmarked) [Cimaterol]			T2 Zscore (Replica 1) [1]: 0.3383; T2 Zscore (Replica 2) [2]: 0.6592
CCCCC[C@H](O)/C=C/C1=C(CCCCCCC(=O)O)C(=O)CC1 [Prostaglandin B1]	0.1925	−0.4985	
O=c1oc(Cl)c(Cl)c2ccccc12 [3,4-dichloroisocoumarin]			T2 Zscore (Replica 1) [1]: 0.3453; T2 Zscore (Replica 2) [2]: 1.548
Cl.N/C(=N\C(=O)c1nc(Cl)c(N)nc1N)NCc1ccccc1 [Benzamil•HCl]	0.1506	−0.9416	
COc1ccc(Cl)cc1C(=O)NCCc1ccc(S(=O)(=O)NC(=O)NC2CCCCC2)cc1 [Glyburide]			T2 Zscore (Replica 1) [1]: −0.002266; T2 Zscore (Replica 2) [2]: 0.6739
COc1ccc2c(c1)CC[C@@H]1[C@@H]2CC[C@]2(C)[C@@H](NCCCCCCN3C(=O)C=CC3=O)CC[C@@H]12 [U73122]	0.4045	1.6	
CC(C)COCC(CN(Cc1ccccc1)c1ccccc1)N1CCCC1.Cl (centres unmarked) [Bepridil • HCl]			T2 Zscore (Replica 1) [1]: 0.6008; T2 Zscore (Replica 2) [2]: −0.283
CC[N+](C)(CC)CCC[n+]1c(-c2ccccc2)c2cc(N)ccc2c2ccc(N)cc21.[I-].[I-] [Propidium iodide]			T2 Zscore (Replica 1) [1]: −0.1023; T2 Zscore (Replica 2) [2]: 0.1909
C=CC[C@@H]1/C=C(\C)C[C@H](C)C[C@H](OC)[C@H]2O[C@@](O)(C(=O)C(=O)N3CCCC[C@H]3C(=O)O[C@H](/C(C)=C/[C@@H]3CC[C@@H](O)[C@H](OC)C3)[C@H](C)[C@@H](O)CC1=O)[C@H](C)C[C@@H]2OC [FK-506]			T2 Zscore (Replica 1) [1]: −0.02301; T2 Zscore (Replica 2) [2]: 0.7523

Molecule	T2 Zscore (Replica 1)	T2 Zscore (Replica 2)	other results
CCCCCCCCCCCCCCCCOCC(COP(=O)([O-])OCC[N+](C)(C)C)OC (centres unmarked) [1-Hexadecyl-2-methylglycero-3 PC]	0.6829	0.001075	
O=C(O)c1cc([N+](=O)[O-])ccc1NCCCc1ccccc1 [NPPB]	0.8821	1.478	
CCOC(=O)C1=C(C)NC(=S)NC1c1cccc(O)c1 (centres unmarked) [Monastrol]			T2 Zscore (Replica 1) [1]: 0.5295; T2 Zscore (Replica 2) [2]: 0.8621
O=c1[nH]c2ccccc2c2ccccc12 [6(5H)-Phenanthridinone]			T2 Zscore (Replica 1) [1]: −0.1416; T2 Zscore (Replica 2) [2]: 0.436
CCCCC/C=C\C\C=C/C=C/C=C/[C@@H](SCC(NC(C)=O)C(=O)O)[C@@H](O)CCCC(=O)O (some centres unmarked) [N-Acetyl-leukotriene E4]	−2.975	1.161	
CC1=C(/C=C/C(C)=C/C=C/C(C)=C/C(=O)Nc2ccc(O)cc2)C(C)(C)CCC1 [4-hydroxyphenylretinamide]	−0.2968	0.2379	
CC(=O)OCOC(c1cc([N+](=O)[O-])ccc1Oc1ccc(Br)cc1)P(=O)(OCOC(C)=O)OCOC(C)=O (centres unmarked) [RWJ-60475-(AM)3]	0.1868	1.381	
O=c1[nH]c2cc(C(F)(F)F)ccc2n1-c1cc(C(F)(F)F)ccc1O [NS-1619]	0.05511	0.2919	
Ro 20-1724	0.7131	0.1282	
CCCCCCCCCCC1=C(C)C(=O)C(OC)=C(OC)C1=O [Decylubiquinone]			T2 Zscore (Replica 1) [1]: 0.6423; T2 Zscore (Replica 2) [2]: 0.4442
C[C@H](N)C(=O)N[C@@H](C)C(=O)N[C@@H](Cc1ccccc1)C(=O)CCl [Ala-Ala-Phe-CMK] (H-Ala-Ala-Phe-CH2Cl)	1.366	0.2566	
CCCCC/C=C\C/C=C\CCCCCCCC(=O)NCCO [Anandamide (18:2,n-6)]	−0.01301	−0.05125	
C1CCC(N=C(NC23CC4CC(CC(C4)C2)C3)N2CCOCC2)CC1.Cl [U-37883A]	0.6957	−0.1533	
C/C1=C/C(=O)O[C@@H]2C[C@@H](CC[C@H](C)/C=C\CC1)O[C@@](O)([C@@H]1CSC(=O)N1)C2 [Latrunculin B]	−0.2506	0.8419	
CCCCCCCC/C=C\CCCCCCCCOC[C@H](COP(=O)([O-])OCC[N+](C)(C)C)OC(C)=O [PAF C18:1]	0.3776	−0.5519	
CCCCCC(=O)/C=C/C=C\CCCCCCCC(=O)O [13-Keto-octadeca-9Z,11E−dienoic acid]			T2 Zscore (Replica 1) [1]: 0.2654; T2 Zscore (Replica 2) [2]: −0.0627
CCCCCCCCCCCCCCCCCCOC[C@H](COP(=O)([O-])OCC[N+](C)(C)C)OC(C)=O [PAF C18]	0.1238	0.06865	
C=C[C@H]1CN2CC[C@H]1C[C@@H]2[C@@H](O)c1ccnc2ccc(OC)cc12.Cl.O [Quinidine • HCl • H2O]			T2 Zscore (Replica 1) [1]: 1.364; T2 Zscore (Replica 2) [2]: 0.1291
CCCCCCCCCC(=O)N[C@H](CN1CCOCC1)[C@H](O)c1ccccc1 (racemic) [DL-PDMP]	−0.7598	−1.578	
CCCCC[C@H](O)/C=C/C=C\CCCCCCCC(=O)O [13(S)-HODE]	1.518	−0.5985	
CCCCC/C=C\C/C=C\CCCCCCCC(=O)OC(CO)COC(=O)CCCCCCCCCCCCCCCCC (centres unmarked) [1-Stearoyl-2-lineoyl-glycerol]	0.1701	1.561	
Clc1ccc(C2CC3CCC2N3)cn1 (racemic) [(±)-Epibatidine]	1.863	0.5841	
CC/C(=C(\c1ccccc1)c1ccc(OCCN(C)C)cc1)c1ccccc1 [Tamoxifen]			T2 Zscore (Replica 1) [3]: 0.7507; T2 Zscore (Replica 2) [4]: 0.9771
CCCCC/C=C\C/C=C\C/C=C\C/C=C\CCCC(=O)NCc1ccc(O)c(OC)c1 [Arvanil]	0.6877	−0.1154	
CCCCC/C=C\C/C=C\C/C=C\C/C=C\CCCCCC(=O)O [Adrenic acid (22:4, n-6)]	−0.259	−0.347	
CC1=NS(=O)(=O)c2cc(Cl)ccc2N1 [Diazoxide]			T2 Zscore (Replica 1) [1]: −0.09947; T2 Zscore (Replica 2) [2]: 1.244
CC1(C)C(C=C(Cl)Cl)C1C(=O)OC(C#N)c1cccc(Oc2ccccc2)c1 (centres unmarked) [Cypermethrin]	0.7689	0.9305	
